Reference: article PMC9970875

B1: HLA-DRB1: 250 µM FUTi (2F-peracetyl-fucose) (protein)
parent chain: MVCLKLPGGSCMTALTVTLMVLSSPLALSGDTRPRFLWQPKRECHFFNGTERVRFLDRYFYNQEESVRFDSDVGEFRAVTELGRPDAEYWNSQKDILEQARAAVDTYCRHNYGVVESFTVQRRVQPKVTVYPSKTQPLQHHNLLVCSVSGFYPGSIEVRWFLNGQEEKAGMVSTGLIQNGDWTFQTLVMLETVPRSGEVYTCQVEHPSVTSPLTVEWRARSESAQSKMLSGVGGFVLGLLFLGAGLFIYFRNQKGHSGLQPTGFLS
B2: HLA-DRB1: 250 µM l-fuc (protein)
parent chain: B1 parent chain

Experiments:
[1] = flow cytometry of cell surface HLA-DRB1, melanoma lines; settings: glycan changed form; control: DMSO
[2] = immunoblot of total HLA-DRB1 protein; settings: glycan changed form; control: DMSO

Protein | localisation_or_trafficking [1] | expression_or_secretion [2]
B1 | decreases | no change
B2 | increases | no change
